{"source": "patent US20140066438A1", "about": "“DOPAMINE RECEPTOR D2 ANTAGONIST FOR PREVENTION AND TREATMENT OF FLAVIVIRUS INFECTION” (Academia Sinica, priority 2012, published 2014)", "tested_on": "HEK293T cells", "assay": "Drug cytotoxicity assays (AlamarBlue, XTT, LDH)", "assay_type": "cell-based, human", "details": "PCZ up to 25 μM, 24 h", "protocol": "(A) PCZ cytotoxicity test. HEK293T cells were treated with solvent control or the indicated concentrations of PCZ for 24 h. AlamarBlue, XTT, and LDH assays were carried out to determine cell viability, cell proliferation, and cytotoxicity, respectively. Data are mean and standard deviation (SD) of 3 independent experiments. […] Representative immunofluorescence microscopy (400× magnification) of cells immunostained for DENV-2 NS3 (green) and DAPI for nuclei (blue). […] Plaque-forming assay of viral progeny production (plaque forming unit, PFU/ml) in culture supernatants of cells in panel C (D). Data are mean and SI) of 2 independent experiments. *P<0.05.\nCells treated with the indicated doses of PCZ were analyzed by use of the Cytotoxicity Detection Kit (LDH) (Roche), Cell Proliferation Kit (XTT) (Roche) and ALAMARBLUE® Cell Viability Assay (Life Technologies). Briefly, cells treated with PCZ at the indicated doses for overnight underwent XTT, LDH and ALAMARBLUE® assay. Sample absorbance from XTT and LDH assays was determined by use of an ELISA reader (Molecular Devices) at 450 and 490 nm, respectively. For AlamarBlue viability assay, fluorescence intensity was monitored at 570 nm excitation and 585 nm emission by use of a microplate reader (Molecular Devices).", "data": [{"substance": "prochlorperazine dimethanesulfonate [PCZ-Novamin]", "values": [{"measurement": "cell viability, cell proliferation, cytotoxicity", "value": "did not significantly affect cell viability, cell proliferation, or cytotoxicity"}]}]}
